In publication PMC10839966, “Identification and evaluation of small-molecule inhibitors against the dNTPase SAMHD1 via a comprehensive screening funnel” (iScience, 2024):
Where two headings read alike, the source gives them in different places. Blank lines part the entries; values can stand above or below the molecule they belong to.

By UniProt entry, the sequences of proteins in these tests, tags left out. Where a name states a change or a piece, a line headed by the entry shows the natural chain unless it says otherwise.
UniProt Q9Y3Z3: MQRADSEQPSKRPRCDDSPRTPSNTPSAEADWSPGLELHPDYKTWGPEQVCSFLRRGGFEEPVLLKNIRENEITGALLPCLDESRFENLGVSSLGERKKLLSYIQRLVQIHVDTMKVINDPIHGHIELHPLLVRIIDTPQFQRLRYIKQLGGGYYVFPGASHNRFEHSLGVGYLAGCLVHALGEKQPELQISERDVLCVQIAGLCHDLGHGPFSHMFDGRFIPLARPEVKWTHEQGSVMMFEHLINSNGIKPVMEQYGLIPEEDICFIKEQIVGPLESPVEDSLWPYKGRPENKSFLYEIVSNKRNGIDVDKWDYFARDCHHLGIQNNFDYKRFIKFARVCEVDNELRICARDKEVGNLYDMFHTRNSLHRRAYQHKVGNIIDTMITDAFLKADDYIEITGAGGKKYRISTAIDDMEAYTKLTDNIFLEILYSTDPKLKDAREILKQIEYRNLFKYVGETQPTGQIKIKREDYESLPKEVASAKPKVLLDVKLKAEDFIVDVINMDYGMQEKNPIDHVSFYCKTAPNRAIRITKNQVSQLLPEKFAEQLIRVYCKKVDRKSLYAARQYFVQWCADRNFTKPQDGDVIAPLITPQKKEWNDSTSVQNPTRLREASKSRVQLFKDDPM

Legend:
recombinant SAMHD1 [1] = target: T1, recombinant SAMHD1 (Homo sapiens, UniProt Q9Y3Z3); assay: High-throughput primary screen, enzyme-coupled malachite green (MG) assay, dGTP substrate, single concentration; type: biochemical; set-up: His-tag (N); made in house; host or cells: E. coli BL21 (DE3); details: for inhibition at 5 µM: compound concentration 5.00E-06 M, 25 μM dGTP, absorbance, hit threshold 23.15%; for Hit: hit flag, hit threshold 23.15% inhibition at 5 μM
recombinant SAMHD1 [2] = target: T1, recombinant SAMHD1; details: Enzymatic, Absorbance
recombinant SAMHD1 [3] = target: T1, recombinant SAMHD1; assay: 11-point dose-response curve (DRC) hit validation, enzyme-coupled MG assay (119 μM to 12.5 nM); type: biochemical; set-up: His-tag (N); made in house; host or cells: E. coli BL21 (DE3); details: 11-point dose-response, dGTP substrate
[4] = system: SAMHD1+/+ and SAMHD1−/− THP-1 cells; details: for Antagonism of cytarabine treatment: TH7126 at 50 μM, TH6342, TH7127, TH7528 at around 30 μM; for Sensitization of THP-1 cells to cytarabine: four days, dose-response matrix with cytarabine, SAMHD1+/+ and SAMHD1−/−

IC50 (recombinant SAMHD1 [3]): 920 nM
Compound: CC(C)(C)c1ccc(NC(=O)N(CCN)Cc2c[nH]c(-c3ccccc3)n2)cc1 [CBK046297C]

inhibition at 5 µM (recombinant SAMHD1 [1]): 2.12%
Hit (recombinant SAMHD1 [1]): 0
Compound: Cn1c(-c2nonc2N)nc2ccccc21 [CBK062642]

IC50 (recombinant SAMHD1 [3]): 1600 nM
Compound: Cc1ccc(-n2c(O)nnc2-c2ccc(Cl)c(Cl)c2)cc1 [CBK074887]

IC50 (recombinant SAMHD1 [3]): 3200 nM
Compound: c1ccc(Oc2ccccc2-c2nccnc2NCCc2ccccn2)cc1 [CBK088614]

inhibition at 5 µM (recombinant SAMHD1 [1]): -0.0545%
Hit (recombinant SAMHD1 [1]): 0
Compound: Fc1ccc(-c2cnn(-c3ccc(OC(F)(F)F)cc3)n2)c(F)c1 [CBK112740]

IC50 (recombinant SAMHD1 [3]): 9600 nM
Compound: Clc1ccccc1-c1cn2ccnc2c(NCCc2ccccn2)n1 [TH6342, 6-(2-chlorophenyl)-N-(2-(pyridin-2-yl)ethyl)imidazo[1,2-a]pyrazin-8-amine]
Antagonism of cytarabine treatment [4]: mildly observed
Sensitization of THP-1 cells to cytarabine [4]: none of TH6342, TH7127, or TH7528 sensitized THP-1 cells to cytarabine

Continued, molecule first:

Compound: CSc1nc(N)cc(N2CCN(C(=O)OC(C)(C)C)CC2)n1 [CBK003458]
inhibition at 5 µM (recombinant SAMHD1 [1]): -2.57%
Hit (recombinant SAMHD1 [1]): 0

Compound: N.N.[Cl][Pt][Cl] [CBK041610]
Inhibition (recombinant SAMHD1 [2]; Concentration 1.00E-05 M): 93.64%
Inhibition (recombinant SAMHD1 [2]; Concentration 4.00E-05 M): 95.03%

Compound: CCCCNC(=O)N1CCN(c2ccccc2Cl)CC1 [CBK043777]
inhibition at 5 µM (recombinant SAMHD1 [1]): 2.1%
Hit (recombinant SAMHD1 [1]): 0

Compound: CCOC(=O)c1cnc(N2CCOCC2)nc1NCCc1c[nH]c2ccccc12 [CBK093605]
inhibition at 5 µM (recombinant SAMHD1 [1]): -0.91%
Hit (recombinant SAMHD1 [1]): 0

Compound: Nc1ccccc1-c1cn2ccnc2c(NCCc2ccccn2)n1 [TH7126, 6-(2-aminophenyl)-N-(2-(pyridin-2-yl)ethyl)imidazo[1,2-a]pyrazin-8-amine]
Antagonism of cytarabine treatment [4]: antagonized cytarabine treatment

Compound: COc1ccccc1-c1cn2ccnc2c(NCCc2ccccn2)n1 [TH7127, 6-(2-methoxyphenyl)-N-(2-(pyridin-2-yl)ethyl)imidazo[1,2-a]pyrazin-8-amine]
Antagonism of cytarabine treatment [4]: mildly observed
Sensitization of THP-1 cells to cytarabine [4]: none of TH6342, TH7127, or TH7528 sensitized THP-1 cells to cytarabine

Compound: c1ccc(CCNc2nc(-c3cccs3)cn3ccnc23)nc1 [TH7528, N-(2-(pyridin-2-yl)ethyl)-6-(thiophen-2-yl)imidazo[1,2-a]pyrazin-8-amine]
Antagonism of cytarabine treatment [4]: mildly observed
Sensitization of THP-1 cells to cytarabine [4]: none of TH6342, TH7127, or TH7528 sensitized THP-1 cells to cytarabine

Compound: NC(=O)NO [hydroxyurea, Hydroxyurea, reference compound]
Sensitization of THP-1 cells to cytarabine [4]: dose-dependently sensitized cells to cytarabine in a SAMHD1-dependent manner
